The list shows a part of the results, in another mix than the full data. Active and inactive are the calls of the source.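 How the source made its calls: active means percent response vs DMSO below 50%; inconclusive means fewer than 70 events counted for the yeast strain; inactive means the rest.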
Experiment: compounds altering RPL19A-GFP fluorescence, TOR branch – cell-based, S. cerevisiae, multiplex flow cytometry, MLPCN, primary screen (AID 2025);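 further: median channel GFP fluorescence of the barcoded RPL19A-GFP strain; ratio of sample median GFP to plate DMSO average so 100% = DMSO; lower means less RPL19A-GFP as with rapamycin TOR inhibition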
Settings: S. cerevisiae RPL19A-GFP strain, 3 h, at 10 µM, stronger effect = lower value

| SMILES | percent response vs DMSO |
| --- | --- |
| Cc1cccc(OCC(=O)OC2CN3CCC2CC3)c1 (stereo not given) | inactive: 105% |
| O=[As](O)(c1cccc(O)c1)c1cccc(O)c1 | inactive: 98.5% |
| O=C(OC1CN2CCC1CC2)c1ccc(Cl)cc1 (stereo not given) | inactive: 89.9% |
| CS(=O)(=O)c1ccc(Cl)c(NC(=O)COC(=O)C(O)(c2ccccc2)c2ccccc2)c1 | inactive: 110% |
| O=[As](O)(O)c1cccnc1 | inactive: 98.4% |
| COc1cc(C(=O)NCC2(N3CCOCC3)CCCCC2)cc(Cl)c1OC(C)C | inactive: 96.6% |
| CCOP(=O)(Nc1cccc2ccccc12)OCC | inactive: 112% |
| COc1cc(C2NCCC3(OCCO3)C2(C)C)cc(OC)c1OC (stereo not given) | inactive: 98.8% |
| Cc1ccc(NCCc2c([N+](=O)[O-])cc([N+](=O)[O-])cc2[N+](=O)[O-])cc1 | inactive: 99.7% |
| Nc1cccc2c([As](=O)(O)O)cccc12 | inactive: 102% |
| CCCOP(=S)(Nc1nc(N)cc(=O)[nH]1)OCCC | inactive: 97.2% |
| O=C(O)COc1ccc([As](=O)(O)O)cc1[N+](=O)[O-] | inactive: 116% |
| Nc1ccccc1[As](=O)(O)c1ccccc1 | inactive: 97.2% |
| O=P(Nc1nccs1)(Oc1ccccc1)Oc1ccccc1 | inactive: 106% |
| O=P(Nc1nccs1)(c1ccccc1)c1nc2ccccc2s1 (stereo not given) | inactive: 95.4% |
| CCOP1(=S)c2c(C)nn(CCC#N)c2N=C(c2ccccc2F)N1C (stereo not given) | inactive: 103% |
| CS(=O)(=O)c1cc([N+](=O)[O-])c2no[n+]([O-])c2c1 | inactive: 92.5% |
| CCOP1(=S)c2c(C)nn(CCC#N)c2N=C(c2ccc(F)cc2)N1C (stereo not given) | inactive: 95.5% |
| CN(C(=O)Cc1ccccc1)[C@@H]1CC[C@]2(CCCO2)C[C@H]1N1CCCC1 | inactive: 96.4% |
| N#CCCN(C(=O)COC(=O)C(O)(c1ccccc1)c1ccccc1)c1ccc(F)cc1 | inactive: 98.6% |
| CN(C(=O)Cc1ccc(Cl)c(Cl)c1)[C@H]1CC[C@@]2(CCCO2)C[C@@H]1N1CCCC1 | inactive: 104% |
| O=[N+]([O-])c1ccc2c(c1)nnn2O | inactive: 105% |

| SMILES | percent response vs DMSO |
| --- | --- |
| CN(C)C(=O)c1cc([N+](=O)[O-])cc2c1-c1c(cc([N+](=O)[O-])cc1[N+](=O)[O-])C2=O | inactive: 92.5% |
| NC(=O)Nc1ccc([As](=O)(O)O)cc1 | inactive: 99.3% |
| CN(C)C1(CNC(=O)c2ccc(S(C)(=O)=O)cc2)CCCCC1 | inactive: 108% |
| O=C(/C=C/c1ccccc1)OC1CN2CCC1CC2 (stereo not given) | inactive: 94% |
| Cc1ccc(C(=O)OC2CN3CCC2CC3)cc1 (stereo not given) | inactive: 93% |
| CC1CCC(C(C)C)C(OP(=O)(Nc2ccccn2)c2ccccc2)C1 (stereo not given) | inactive: 99.7% |
| Cc1nn(-c2ccccc2)c2c1P(=O)(N1CCOCC1)N(C)C(c1ccccc1)=N2 (stereo not given) | inactive: 99.6% |
| Nc1cccc([As](=O)(O)c2ccccc2)c1 | inactive: 87% |
| Cc1ccc(OCC(=O)OC2CN3CCC2CC3)cc1 (stereo not given) | inactive: 97.1% |
| O=[As](O)(c1cccs1)c1cccs1 | inactive: 96.9% |
| NS(=O)(=O)c1cccc(NC(=O)COC(=O)C(O)(c2ccccc2)c2ccccc2)c1 | inactive: 96.8% |
| O=P1(Nc2ccc(Br)cn2)COc2ccccc2OC1 | inactive: 97.8% |
| O=P1(Nc2ncccn2)COc2ccccc2OC1 | inactive: 106% |
| CC(C)(C)C(=O)NC(Sc1ncccn1)C(Cl)(Cl)Cl (stereo not given) | inactive: 95% |
| Clc1n[nH]nc1-c1nn[nH][15n]1 | inactive: 101% |
| CCOP(=O)(NC(=NC(C)c1ccccc1)NC(C)c1ccccc1)OCC (stereo not given) | inactive: 94.6% |
| CCC1=CC2Cc3nc4ccc(Cl)cc4c(N)c3C(C1)C2 (stereo not given) | inactive: 100% |
| O=P1(Nc2ccccn2)COc2ccccc2OC1 | inactive: 102% |
| CCOP(=O)(Nc1ccc(C)cn1)OCC | inactive: 104% |
| CN(CCCl)Cc1cc(Cl)c(NC2=NCCN2)c(Cl)c1 | inactive: 103% |
| CN(C(=O)Cc1ccc(Cl)c(Cl)c1)[C@@H]1CCCC[C@H]1N1CCCC1 | inactive: 96% |
| CC(C)/C=N\N=C(\N)N[N+](=O)[O-] | inactive: 101% |

| SMILES | percent response vs DMSO |
| --- | --- |
| CC1(CBr)Cn2c(nc3ccccc3c2=O)S1 (stereo not given) | inactive: 103% |
| O=[As](O)(c1ccccc1Br)c1ccccc1Br | inactive: 104% |
| COc1ccccc1CNC(=O)COC(=O)C(O)(c1ccccc1)c1ccccc1 | inactive: 97.9% |
| O=C(Nc1ccncc1[N+](=O)[O-])c1ccc([N+](=O)[O-])cc1[N+](=O)[O-] | inactive: 101% |
| O=C(COc1ccccc1)OC1CN2CCC1CC2 (stereo not given) | inactive: 95.3% |
| COP1(=S)c2c(C)nn(CCC#N)c2N=C(c2ccc(F)cc2)N1C (stereo not given) | inactive: 102% |
| CCC(C)N(CC(C)C)C(=S)SC(NC(C)=O)C(Cl)(Cl)Cl (stereo not given) | inactive: 95.8% |
| O=C(OC1CN2CCC1CC2)c1cccc([N+](=O)[O-])c1 (stereo not given) | inactive: 101% |
| CCOC(=O)c1ccc(NC(=O)C(C)(CCl)SC)cc1 (stereo not given) | inactive: 103% |
| Cc1cc(SC(NC(=O)c2ccccc2)C(Cl)(Cl)Cl)nc(C(C)C)n1 (stereo not given) | inactive: 94.6% |
| CCOC(=O)Nc1ccc([As](=O)(O)O)c(O)c1 | inactive: 108% |
| Cc1cc(SC(NC=O)C(Cl)(Cl)Cl)ncn1 (stereo not given) | inactive: 103% |
| O=P(Nc1ccccn1)(c1cccc2ccccc12)c1cccc2ccccc12 | inactive: 85.5% |
| O=[N+]([O-])c1ccc(Nc2ccc(Oc3ccc([N+](=O)[O-])cc3[N+](=O)[O-])cc2)c([N+](=O)[O-])c1 | inactive: 105% |
| CCOC(=O)Nc1cccc([As](=O)(O)O)c1 | inactive: 92.6% |
| Cc1ccc(OP(=O)(Nc2ccc([N+](=O)[O-])cn2)Oc2ccc(C)cc2)cc1 | inactive: 102% |
| Cc1ccc2nc3c(c(C)c2c1)CC(C(Cl)Cl)S3 (stereo not given) | inactive: 100% |
| COc1cc(C(=O)NCC2(N3CCOCC3)CCCCC2)ccc1OCC(C)C | inactive: 102% |
| C[As](=O)(O)c1cccc(C(=O)O)c1 | inactive: 104% |
| O=[As](O)(c1ccc(O)cc1)c1ccccc1O | inactive: 97.6% |
| O=[N+]([O-])c1cc([N+](=O)[O-])c(-c2ccn[nH]2)s1 | inactive: 96.6% |
